Experimental data taken from patent US8647613B2, “Drug carrier” (JCR Pharmaceuticals Co., Ltd., priority 2005, dated 2014).

Tests used:
[1] = Release of protein-bound transmembrane-type lipid from protein-bound liposome; assay type: physicochemical; conditions: protein bound via transmembrane-type lipid (11), pH 7.4, 37° C., up to 24 hours
Protocol: The prepared liposome having each of 5 types of protein (FITC-labeled) bound thereto was shaken at pH 7.4 at 37° C., and the fluorescence measurement of release behavior of the proteins was performed.
A dispersion of protein-bound (or protein-conjugated) liposome (PBS 10 mL, [Lipid]=0.8 g/dL, stored at 4° C.) was shaken at 37° C. 5 minutes after the start, 1 mL of control (0 min) was sampled and subjected to centrifugation (10,000 rpm, 5 min.). Then, fluorescence measurement (FITC, λex=490 nm, λem=520 nm) of the supernatant (700 μL) was performed, and the separated protein was quantified based on the calibration curve. 2, 4, 8, 12 and 24 hours later also, the same operation was performed to measure the time-dependent change of the released protein. […] The symbols in FIG. 3 represent the following: (●): α-lactalbumin; (▪): rHSA; (□): IgG; (▴): ferritin; and: (Δ): thyrogrobulin.

[2] = cited from earlier work

## rHSA: model protein, 66.5 kDa
[1]
  protein stably retained on the liposome surface: about 90%
[2]; Table 2
  Isoelectric point: 5.1
[2]; Table 5
  Isoelectric point (-): 5.1
